# Test system: Intracellular Adenosine in various Rat Tissues
# Conditions: in vivo
# Procedure: Folinic acid (50 mg/kg) was administered intraperitoneally once daily for fourteen days. […] Hearts were removed from animals and flash frozen in liquid nitrogen with 10 seconds of death. Liver and lungs were removed en bloc and flash frozen with 30 seconds of death. Brain tissue was subsequently dissected.
compound,measurement,value
"C[C@]12CC[C@H](O)CC1=CC[C@@H]1[C@@H]2CC[C@]2(C)C(=O)CC[C@@H]12 [DHEA, dehydroepiandrosterone]","Intracellular Adenosine, Liver",16.4 ± 1.4 nmols/mg protein

# Source: US20110045032A1, “COMPOSITION, FORMULATIONS & KIT FOR TREATMENT OF RESPIRATORY AND LUNG DISEASE WITH DEHYDROEPIANDROSTERONE(S) STEROID & AN ANTI-MUSCARINIC AGENT(S)” (priority 2001, published 2011)
